We go through 6 molecules from ChEMBL document CHEMBL1140637, “QSAR modeling of matrix metalloproteinase inhibition by N-hydroxy-alpha-phenylsulfonylacetamide derivatives” (Bioorg Med Chem, 2007).

The chains behind the UniProt entries cited, without tags or fusion partners. Where a name states a change or a piece, a line headed by the entry shows the natural chain unless it says otherwise.
UniProt P14780: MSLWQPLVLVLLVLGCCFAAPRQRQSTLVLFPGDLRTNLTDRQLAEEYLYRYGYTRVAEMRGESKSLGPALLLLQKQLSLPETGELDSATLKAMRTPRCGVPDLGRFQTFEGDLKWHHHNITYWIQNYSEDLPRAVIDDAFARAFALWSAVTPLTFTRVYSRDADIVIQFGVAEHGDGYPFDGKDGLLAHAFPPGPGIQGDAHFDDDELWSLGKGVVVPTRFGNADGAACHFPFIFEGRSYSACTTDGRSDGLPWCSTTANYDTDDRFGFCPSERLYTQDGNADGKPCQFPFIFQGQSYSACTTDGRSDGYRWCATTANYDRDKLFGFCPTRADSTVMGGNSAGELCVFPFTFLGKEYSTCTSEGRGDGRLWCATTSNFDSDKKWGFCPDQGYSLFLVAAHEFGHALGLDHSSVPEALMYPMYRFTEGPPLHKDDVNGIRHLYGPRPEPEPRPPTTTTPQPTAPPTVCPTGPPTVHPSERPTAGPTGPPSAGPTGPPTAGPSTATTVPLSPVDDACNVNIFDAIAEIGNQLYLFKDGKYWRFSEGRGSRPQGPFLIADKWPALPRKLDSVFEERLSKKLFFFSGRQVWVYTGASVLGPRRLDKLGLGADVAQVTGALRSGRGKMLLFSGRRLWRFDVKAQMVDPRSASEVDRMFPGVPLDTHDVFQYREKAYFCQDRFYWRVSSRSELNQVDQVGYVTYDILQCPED

The structures appear in SMILES notation.

One experiment concerns the target T1, Interstitial collagenase (Homo sapiens) (UniProt P03956).
T1 sequence (whole entry): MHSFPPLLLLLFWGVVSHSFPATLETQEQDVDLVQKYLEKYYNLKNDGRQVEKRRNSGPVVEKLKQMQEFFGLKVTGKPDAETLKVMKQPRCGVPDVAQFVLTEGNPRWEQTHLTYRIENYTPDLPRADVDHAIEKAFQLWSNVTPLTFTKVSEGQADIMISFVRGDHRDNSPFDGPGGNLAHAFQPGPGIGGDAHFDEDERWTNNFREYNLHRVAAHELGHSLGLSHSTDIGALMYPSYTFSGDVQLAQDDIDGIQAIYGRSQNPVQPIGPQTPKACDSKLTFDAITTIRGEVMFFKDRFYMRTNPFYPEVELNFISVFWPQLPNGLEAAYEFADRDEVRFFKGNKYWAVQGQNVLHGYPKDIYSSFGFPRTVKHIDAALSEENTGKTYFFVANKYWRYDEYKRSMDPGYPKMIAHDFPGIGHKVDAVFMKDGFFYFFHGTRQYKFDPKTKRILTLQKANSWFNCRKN
Kind of experiment: Inhibition of MMP1.
Regarding `CC(C)CCOc1ccc(S(=O)(=O)C2(C(=O)NO)CCN(Cc3ccccc3)CC2)cc1`, the log(10^6/IC50) came to 2.59.
On the same count and under the same terms, as for `COc1ccc(S(=O)(=O)[C@@](Cc2cccnc2)(CC(C)C)C(=O)NO)cc1`, the figure is 3.
Take `Cc1ccc(CN2CCC(C(=O)NO)(S(=O)(=O)c3ccc(OCc4ccc(Cl)cc4)cc3)CC2)cc1`: the log(10^6/IC50) was 2.32.
Molecule `CN1CCC(C(=O)NO)(S(=O)(=O)c2ccc(Oc3ccc(Cl)cc3)cc2)CC1` came in with a log(10^6/IC50) of 2.85.
The same measure, in the same setting: as for `COc1ccc(S(=O)(=O)[C@](C)(Cc2ccc(OCCN(C(C)C)C(C)C)cc2)C(=O)NO)cc1`, the figure is 3.37.
Same read-out and setting: under `CCOc1ccc(S(=O)(=O)[C@](C)(Cc2ccc(OCCN(CC)CC)cc2)C(=O)NO)cc1` stands 3.2.

The next experiment addresses Matrix metalloproteinase-9 (Homo sapiens) (UniProt P14780). Kind of experiment: Inhibition of MMP9.
In the case of `CC(C)CCOc1ccc(S(=O)(=O)C2(C(=O)NO)CCN(Cc3ccccc3)CC2)cc1`, the log(10^6/IC50) amounted to 5.4.
The same measure, in the same setting: as for `COc1ccc(S(=O)(=O)[C@@](Cc2cccnc2)(CC(C)C)C(=O)NO)cc1`, the figure is 4.2.
`Cc1ccc(CN2CCC(C(=O)NO)(S(=O)(=O)c3ccc(OCc4ccc(Cl)cc4)cc3)CC2)cc1` returned a log(10^6/IC50) of 5.22.
As to `CN1CCC(C(=O)NO)(S(=O)(=O)c2ccc(Oc3ccc(Cl)cc3)cc2)CC1`, the log(10^6/IC50) stood at 5.7.
Consider `COc1ccc(S(=O)(=O)[C@](C)(Cc2ccc(OCCN(C(C)C)C(C)C)cc2)C(=O)NO)cc1`, for which the log(10^6/IC50) amounted to 4.82.
Still for that read-out and setting: as for `CCOc1ccc(S(=O)(=O)[C@](C)(Cc2ccc(OCCN(CC)CC)cc2)C(=O)NO)cc1`, the figure is 4.96.

The target of the next experiment is Collagenase 3 (Homo sapiens) (UniProt P45452).
With `CC(C)CCOc1ccc(S(=O)(=O)C2(C(=O)NO)CCN(Cc3ccccc3)CC2)cc1`, the log(10^6/IC50) stood at 5.7.
For the molecule `COc1ccc(S(=O)(=O)[C@@](Cc2cccnc2)(CC(C)C)C(=O)NO)cc1`, the log(10^6/IC50) is 4.89.
Same read-out and setting: as for `Cc1ccc(CN2CCC(C(=O)NO)(S(=O)(=O)c3ccc(OCc4ccc(Cl)cc4)cc3)CC2)cc1`, the figure is 5.22; as for `CN1CCC(C(=O)NO)(S(=O)(=O)c2ccc(Oc3ccc(Cl)cc3)cc2)CC1`, 5.7; as for `COc1ccc(S(=O)(=O)[C@](C)(Cc2ccc(OCCN(C(C)C)C(C)C)cc2)C(=O)NO)cc1`, 4.72.
`CCOc1ccc(S(=O)(=O)[C@](C)(Cc2ccc(OCCN(CC)CC)cc2)C(=O)NO)cc1` had a log(10^6/IC50) of 4.8.
